The entries are a selection whose mix differs from that of the whole data set. Active and inactive are the calls of the source.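 How the source made its calls: active means inhibition above the screen-wide average plus 3 SD (cut at about 13% in these data); inactive means the rest.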
These compounds were tested against Galanin receptor type 3 (Homo sapiens) (UniProt O60755) (assay: blockers of human galanin receptor 3 – cell-based, fluorescence readout, primary screen (AID 651719;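 further: forskolin and galanin both at EC90 stimulate the cells; cAMP rise reported by CNG channel membrane potential dye signal; 0% = forskolin plus galanin with DMSO and 100% = forskolin alone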)). Conditions: HEK293 GalR3-CNG cAMP membrane potential fluorescence; at 3 µM; stronger effect = higher value; galR3 body fused to GalR1 C-terminus.

Chains of the proteins cited; added tags and fusions are not shown. Lines headed by an entry give the natural chain unless they say otherwise; changes in a name come on top.
UniProt O60755: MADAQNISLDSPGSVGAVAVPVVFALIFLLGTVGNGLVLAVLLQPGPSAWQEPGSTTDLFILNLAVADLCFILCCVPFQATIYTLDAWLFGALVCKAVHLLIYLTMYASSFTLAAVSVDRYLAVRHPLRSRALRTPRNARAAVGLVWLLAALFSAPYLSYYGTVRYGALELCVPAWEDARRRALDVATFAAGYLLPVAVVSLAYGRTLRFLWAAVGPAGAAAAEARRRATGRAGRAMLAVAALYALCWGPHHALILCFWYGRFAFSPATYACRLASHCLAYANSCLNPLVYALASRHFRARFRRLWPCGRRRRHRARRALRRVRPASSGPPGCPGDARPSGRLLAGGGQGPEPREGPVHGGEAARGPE

Structure (SMILES)	inhibition
CCCCOc1ccc(C(=O)NCC2(N3CCCCC3)CCCCC2)cc1OC	inactive: -6.44%
Cc1cc(SC(NC(=O)c2ccccc2)C(Cl)(Cl)Cl)nc(C(C)C)n1 (stereo unspecified)	inactive: -1.51%
COP(=O)(OC)N1CC1c1ccccc1 (stereo unspecified)	inactive: -5.59%
CC1CCNP(=O)(N(CCCl)CCCl)O1 (stereo unspecified)	inactive: 6.76%
O=C(O)C(O)c1ccc(N(CCCl)CCCl)cc1 (stereo unspecified)	inactive: -6.78%
CCOC(=O)Nc1ccc([As](=O)(O)O)c(O)c1	inactive: -4.13%
O=[N+]([O-])c1ccc(Nc2ccc(Oc3ccc([N+](=O)[O-])cc3[N+](=O)[O-])cc2)c([N+](=O)[O-])c1	inactive: -8.11%
Cc1cc(SC(NC=O)C(Cl)(Cl)Cl)ncn1 (stereo unspecified)	inactive: -4.88%
O=P(Nc1ccccn1)(c1cccc2ccccc12)c1cccc2ccccc12	inactive: -4.02%
CCOC(=O)Nc1cccc([As](=O)(O)O)c1	inactive: -8.65%
O=C(COc1ccccc1)OC1CN2CCC1CC2 (stereo unspecified)	inactive: -0.14%
O=C(Nc1ccncc1[N+](=O)[O-])c1ccc([N+](=O)[O-])cc1[N+](=O)[O-]	inactive: -5.25%
O=C(O)C(=O)c1ccc(N(CCCl)CCCl)cc1	inactive: 1.2%
COP1(=S)c2c(C)nn(CCC#N)c2N=C(c2ccc(F)cc2)N1C (stereo unspecified)	inactive: -2.73%
COC(=O)C1(C)COP(=O)(N2CCCC2)OC1 (stereo unspecified)	inactive: -3.04%
CCC(C)N(CC(C)C)C(=S)SC(NC(C)=O)C(Cl)(Cl)Cl (stereo unspecified)	inactive: -4.88%
CCOC(=O)c1ccc(NC(=O)C(C)(CCl)SC)cc1 (stereo unspecified)	inactive: -3.94%
O=C(OC1CN2CCC1CC2)c1cccc([N+](=O)[O-])c1 (stereo unspecified)	inactive: -10%
COc1ccc2nc(NP(=O)(c3ccccc3)c3ccccc3)sc2c1	inactive: -4.12%
COc1cc(I)ccc1[As](=O)(O)O	inactive: -1.89%
O=P1(N(CCCl)CCCl)Nc2ccccc2N1	inactive: -5.15%
O=P1(N(CCCl)CCCl)OCCCN1CCCl (stereo unspecified)	inactive: -5.26%
O=C(OC1CN2CCC1CC2)C12CC3CC(CC(C3)C1)C2 (stereo unspecified)	inactive: -3.34%
Cc1cc(=O)[nH]c(N[N+](=O)[O-])n1	inactive: 1.21%
Cc1c2c(nc3ccccc13)SC(C(Cl)Cl)C2 (stereo unspecified)	inactive: -5.84%
COc1ccc(N/C(=N/P(=O)(N2CCOCC2)N2CCOCC2)N2CCOCC2)cc1	inactive: -4.61%

Structure (SMILES)	inhibition
O=[N+]([O-])c1cc(Oc2ccc([N+](=O)[O-])cc2C(F)(F)F)cc([N+](=O)[O-])c1	inactive: -3.96%
Cc1ccc2nc3c(c(C)c2c1)CC(C(Cl)Cl)S3 (stereo unspecified)	inactive: 0.17%
Cc1ccc(OP(=O)(Nc2ccc([N+](=O)[O-])cn2)Oc2ccc(C)cc2)cc1	inactive: -5.2%
[N-]=[N+]=NC1CCCCC1NC(=O)c1cc([N+](=O)[O-])cc([N+](=O)[O-])c1 (stereo unspecified)	inactive: -7%
O=[As](O)(c1ccc(O)cc1)c1ccccc1O	inactive: -3.4%
C[As](=O)(O)c1cccc(C(=O)O)c1	inactive: -9.09%
COc1cc(C(=O)NCC2(N3CCOCC3)CCCCC2)ccc1OCC(C)C	inactive: -0.47%
O=[N+]([O-])c1ccc(-c2cc([N+](=O)[O-])c(O)c([N+](=O)[O-])c2)cc1	inactive: -5.04%
O=C(OC1CN2CCC1CC2)c1cccc2[nH]cnc12 (stereo unspecified)	inactive: 5.37%
CCN(CC)C(=S)SC(NC=O)C(Cl)(Cl)Cl (stereo unspecified)	inactive: 0.64%
CC(C)NC(=O)NP(=O)(Oc1ccccc1)Oc1ccccc1	inactive: -1.44%
CC(C)c1ccc(OP(=O)(Nc2ccccn2)Oc2ccccc2F)cc1 (stereo unspecified)	inactive: 3.98%
COC(=O)C1(C)COP(=O)(N2CCCCCC2)OC1 (stereo unspecified)	inactive: -4.95%
ClCCSc1nnc(-c2cccnc2)o1	inactive: -2.87%
O=C(O)COc1ccc([As](=O)(O)O)cc1[N+](=O)[O-]	inactive: -9.26%
Nc1ccccc1[As](=O)(O)c1ccccc1	inactive: -3.9%
CCOP1(=S)c2c(C)nn(CCC#N)c2N=C(c2ccccc2F)N1C (stereo unspecified)	inactive: -1.19%
O=P(Nc1nccs1)(Oc1ccccc1)Oc1ccccc1	inactive: -2%
CN(C)C(=O)c1cc([N+](=O)[O-])cc2c1-c1c(cc([N+](=O)[O-])cc1[N+](=O)[O-])C2=O	inactive: -6.99%
O=[N+]([O-])c1ccc2c(c1)nnn2O	inactive: -7.48%
N#CCCN(C(=O)COC(=O)C(O)(c1ccccc1)c1ccccc1)c1ccc(F)cc1	inactive: -2.39%
CN(C(=O)Cc1ccccc1)[C@@H]1CC[C@]2(CCCO2)C[C@H]1N1CCCC1	inactive: -1.84%
CCOP1(=S)c2c(C)nn(CCC#N)c2N=C(c2ccc(F)cc2)N1C (stereo unspecified)	inactive: -6.52%
NC(=O)Nc1ccc([As](=O)(O)O)cc1	inactive: -3.91%
O=[As](O)(c1cccc(O)c1)c1cccc(O)c1	inactive: -4.9%
Cc1cccc(OCC(=O)OC2CN3CCC2CC3)c1 (stereo unspecified)	inactive: -0.88%

Structure (SMILES)	inhibition
COc1cc(C(=O)NCC2(N3CCOCC3)CCCCC2)cc(Cl)c1OC(C)C	inactive: -0.8%
O=[As](O)(O)c1cccnc1	inactive: 3.78%
CS(=O)(=O)c1ccc(Cl)c(NC(=O)COC(=O)C(O)(c2ccccc2)c2ccccc2)c1	inactive: -6.23%
O=C(OC1CN2CCC1CC2)c1ccc(Cl)cc1 (stereo unspecified)	inactive: -4.51%
COc1cc(C2NCCC3(OCCO3)C2(C)C)cc(OC)c1OC (stereo unspecified)	inactive: -9.7%
CCOP(=O)(Nc1cccc2ccccc12)OCC	inactive: -5.85%
CCCOP(=S)(Nc1nc(N)cc(=O)[nH]1)OCCC	inactive: 5.54%
Nc1cccc2c([As](=O)(O)O)cccc12	inactive: -11.6%
Cc1ccc(NCCc2c([N+](=O)[O-])cc([N+](=O)[O-])cc2[N+](=O)[O-])cc1	inactive: -5.28%
Clc1n[nH]nc1-c1nn[nH][15n]1	inactive: -0.78%
O=P1(N(CCCl)CCCl)NCCC(C(F)(F)F)O1 (stereo unspecified)	inactive: -2.17%
CC(C)(C)C(=O)NC(Sc1ncccn1)C(Cl)(Cl)Cl (stereo unspecified)	inactive: 9.16%
CN(CCCl)Cc1cc(Cl)c(NC2=NCCN2)c(Cl)c1	inactive: -2.19%
CCOP(=O)(Nc1ccc(C)cn1)OCC	inactive: -7.07%
CCC1=CC2Cc3nc4ccc(Cl)cc4c(N)c3C(C1)C2 (stereo unspecified)	inactive: -20.2%
O=P1(Nc2ccccn2)COc2ccccc2OC1	inactive: -4.32%
CCOP(=O)(NC(=NC(C)c1ccccc1)NC(C)c1ccccc1)OCC (stereo unspecified)	inactive: -4.83%
CC(C)/C=N\N=C(\N)N[N+](=O)[O-]	inactive: -0.11%
CN(C(=O)Cc1ccc(Cl)c(Cl)c1)C1CCCC[C@@H]1N1CCCC1 (stereo partly specified)	inactive: -6.47%
COc1ccccc1CNC(=O)COC(=O)C(O)(c1ccccc1)c1ccccc1	inactive: -5.52%
O=C(/C=C/c1ccccc1)OC1CN2CCC1CC2 (stereo unspecified)	inactive: -4.82%
CCCC1OP(=O)(Nc2ccccc2)OCC1CC (stereo unspecified)	inactive: -6.32%
CN(C)C1(CNC(=O)c2ccc(S(C)(=O)=O)cc2)CCCCC1	inactive: -3.04%
Cc1nn(-c2ccccc2)c2c1P(=O)(N1CCOCC1)N(C)C(c1ccccc1)=N2 (stereo unspecified)	inactive: -8.35%
Cc1ccc(C(=O)OC2CN3CCC2CC3)cc1 (stereo unspecified)	inactive: -10.5%
CC1CCC(C(C)C)C(OP(=O)(Nc2ccccn2)c2ccccc2)C1 (stereo unspecified)	inactive: -12.6%

Structure (SMILES)	inhibition
NS(=O)(=O)c1cccc(NC(=O)COC(=O)C(O)(c2ccccc2)c2ccccc2)c1	inactive: -3.15%
O=P1(Nc2ccc(Br)cn2)COc2ccccc2OC1	inactive: -5.25%
O=[As](O)(c1cccs1)c1cccs1	inactive: -10.7%
Cc1ccc(OCC(=O)OC2CN3CCC2CC3)cc1 (stereo unspecified)	inactive: -3.15%
Nc1cccc([As](=O)(O)c2ccccc2)c1	inactive: -0.55%
O=P1(Nc2ncccn2)COc2ccccc2OC1	inactive: -2.37%
Cc1ccc(S(=O)(=O)N(CCCN)CCCc2c(C)nc(N)[nH]c2=O)cc1	inactive: 0.47%
O=P(Nc1nc2ccccc2s1)(c1ccccc1)c1ccccc1	inactive: -1.67%
C[C@H]1OP(=O)(Oc2ccccc2)[C@H](O)[C@H](O)[C@H]1N=[N+]=[N-] (stereo partly specified)	inactive: -2.89%
Nc1ccc(CCCCOc2ccccc2)cc1	inactive: -7.62%
COc1ccc(N)c([N+](=O)[O-])c1[N+](=O)[O-]	inactive: -4.33%
CN(C)C1(CNC(=O)c2ccc(Cl)c(S(N)(=O)=O)c2)CCCCC1	inactive: -11.2%
O=P(Nc1ccccn1)(c1ccc(Br)cc1)c1ccc(Br)cc1	inactive: -3.62%
C/C(N)=N\P(=O)(OCc1ccccc1)OCc1ccccc1	inactive: -7.29%
Nc1ccc([As](=O)(O)c2ccc([N+](=O)[O-])cc2)cc1	inactive: -0.14%
C(Cc1nn[nH]n1)Cc1nn[nH]n1	inactive: -5.45%
O=C(OC1CN2CCC1CC2)c1cccc(Cl)c1 (stereo unspecified)	inactive: -3.25%
O=[N+]([O-])c1ncn(CCn2cnc([N+](=O)[O-])n2)n1	inactive: -3.28%
CC(=O)NC(SC(=S)N(C)C)C(Cl)(Cl)Cl (stereo unspecified)	inactive: -0.94%
O=[As](O)(c1ccccc1)c1ccc(O)cc1	inactive: -4.6%
c1nnnn1CCn1cnnn1	inactive: -2.22%
O=P(Nc1nccs1)(c1ccccc1)c1ccccc1	inactive: -1.62%
CC(C)C(=O)NC(Sc1ccccc1)C(Cl)(Cl)Cl (stereo unspecified)	inactive: -1.85%
